Biological target: UBR4_(4828–5183) (human) (UniProt Q5T4S7)
Assay: ITC; UBR4 construct in the cell (74 μM), UBE2A in the syringe at tenfold higher concentration; 25 °C; 0.4 µl then 13 injections of 3 µl; UBE2A into buffer subtracted; single site binding model

The chains behind the UniProt entries cited, without tags or fusion partners. Residues count along the entry.
UniProt Q5T4S7, 4828-5183: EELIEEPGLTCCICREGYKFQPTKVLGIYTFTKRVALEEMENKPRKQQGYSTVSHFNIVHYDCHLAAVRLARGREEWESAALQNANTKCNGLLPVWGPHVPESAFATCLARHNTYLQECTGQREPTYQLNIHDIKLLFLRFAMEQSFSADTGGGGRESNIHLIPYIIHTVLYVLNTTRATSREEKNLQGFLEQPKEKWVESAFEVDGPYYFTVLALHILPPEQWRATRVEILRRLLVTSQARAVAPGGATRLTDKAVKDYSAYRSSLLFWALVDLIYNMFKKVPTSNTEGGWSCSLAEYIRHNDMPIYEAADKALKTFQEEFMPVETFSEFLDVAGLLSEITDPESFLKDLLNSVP
UniProt P49459, whole entry: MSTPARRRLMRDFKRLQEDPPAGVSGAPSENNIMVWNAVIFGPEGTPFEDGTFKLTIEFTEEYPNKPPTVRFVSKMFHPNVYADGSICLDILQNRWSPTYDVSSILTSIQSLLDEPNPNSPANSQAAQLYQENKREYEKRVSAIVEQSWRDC

dH: -3.89 kcal/mol
Substance: UBE2A (from UniProt P49459 1-152) (enzyme)
